# Reference: PubChem BioAssay AID1259310 (The Scripps Research Institute Molecular Screening Center, 2017)
# By UniProt entry, the sequences of proteins in these tests, tags left out. Where a name states a change or a piece, a line headed by the entry shows the natural chain unless it says otherwise.
# UniProt Q969H0, whole entry, stated change not applied: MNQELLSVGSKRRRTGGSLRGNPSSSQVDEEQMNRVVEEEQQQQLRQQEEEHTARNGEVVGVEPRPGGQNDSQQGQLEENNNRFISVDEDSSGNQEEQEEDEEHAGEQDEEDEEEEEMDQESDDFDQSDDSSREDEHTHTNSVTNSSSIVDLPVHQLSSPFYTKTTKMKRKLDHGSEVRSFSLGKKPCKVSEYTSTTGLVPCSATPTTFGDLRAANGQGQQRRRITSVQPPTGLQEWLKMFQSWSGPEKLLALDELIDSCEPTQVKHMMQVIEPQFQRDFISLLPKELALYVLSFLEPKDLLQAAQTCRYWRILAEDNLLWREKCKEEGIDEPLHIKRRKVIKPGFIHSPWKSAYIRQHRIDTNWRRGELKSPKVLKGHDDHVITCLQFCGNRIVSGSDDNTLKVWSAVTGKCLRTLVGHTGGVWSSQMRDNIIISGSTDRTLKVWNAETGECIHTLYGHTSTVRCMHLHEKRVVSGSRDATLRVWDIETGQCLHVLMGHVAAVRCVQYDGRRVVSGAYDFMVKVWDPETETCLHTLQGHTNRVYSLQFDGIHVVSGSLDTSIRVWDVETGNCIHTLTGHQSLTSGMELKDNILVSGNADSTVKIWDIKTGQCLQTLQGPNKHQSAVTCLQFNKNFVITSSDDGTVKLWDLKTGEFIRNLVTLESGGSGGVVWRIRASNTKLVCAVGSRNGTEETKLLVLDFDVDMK
# This is a selection; strong and weak results do not stand in their true shares. Some structures show a salt or complex split into parts, the way the source records it. Active and inactive are the calls of the source. Cut-off read from the data, not from the text of the source: active = normalized activity above about 1.9%; inactive = the rest.
# Biological target: F-box/WD repeat-containing protein 7 (Homo sapiens) (UniProt Q969H0)
# Assay: FBW7 E3 ligase activators, primary screen, biochemical, AlphaScreen, human (AID 1259310);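 note: purified mutant Fbw7 with reduced substrate affinity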
# Settings: AlphaScreen FBW7–phospho-cyclin E peptide binding, activator screen; at 26.1 µM; stronger effect = higher value
row,Compound,normalized activity (activation)
1,O=[N+]([O-])c1cc([N+](=O)[O-])c(Nc2ccccc2CO)c([N+](=O)[O-])c1,inactive: -0.84%
2,CP(=O)(Nc1ccc(F)c(Cl)c1)Oc1ccccc1 (stereo unspecified),inactive: -0.21%
3,[O-][n+]1onc2c1c1no[n+]([O-])c1c1no[n+]([O-])c21,inactive: -0.32%
4,Cc1c([N+](=O)[O-])cc([N+](=O)[O-])c(Nc2ccc(C(=O)O)cc2)c1[N+](=O)[O-],inactive: 0.13%
5,COc1cccc(C(OP(C)(=O)O)C(F)(F)F)c1 (stereo unspecified),inactive: 0.5%
6,CP(=O)(Nc1ccc(Cl)cc1)Oc1ccc(F)cc1 (stereo unspecified),inactive: -0.01%
7,CN(C)/C=C(\C=O)c1c([N+](=O)[O-])cc([N+](=O)[O-])cc1[N+](=O)[O-],inactive: -0.13%
8,COc1ccccc1OP(C)(=O)Nc1c(C)n(C)n(-c2ccccc2)c1=O (stereo unspecified),inactive: -0.03%
9,OCCSCCO,inactive: 0.04%
10,CP(=O)(Oc1ccccc1)N1CCOC1=O (stereo unspecified),inactive: 0.24%
11,O=[N+]([O-])c1cc([N+](=O)[O-])c(N2CCOCC2)c([N+](=O)[O-])c1,inactive: 0.24%
12,CCc1ccc(OP(C)(=O)Nc2ccc(I)cc2)cc1 (stereo unspecified),inactive: 0.15%
13,CN1CCCC1=C1c2cc([N+](=O)[O-])cc([N+](=O)[O-])c2-c2c1cc([N+](=O)[O-])cc2[N+](=O)[O-],inactive: -0.18%
14,O=C(Nc1ccccc1O)c1c([N+](=O)[O-])cc([N+](=O)[O-])cc1[N+](=O)[O-],inactive: -0.22%
15,COc1ccc(OP(C)(=O)Nc2ccc(Br)cc2)cc1 (stereo unspecified),inactive: 0.28%
16,O=[N+]([O-])c1cc([N+](=O)[O-])c(NCc2ccccc2)c([N+](=O)[O-])c1,inactive: -1.51%
17,CN(c1nc2nonc2nc1N(C)[N+](=O)[O-])[N+](=O)[O-],inactive: 0.18%
18,N1=Nc2nonc2N=Nc2nonc21,inactive: 0.02%
19,C/C1=C2N=C(/C=C3N=C(/C(C)=C4\[N-]C(C(CC(N)=O)C4(C)CCC(=O)NCC(C)OP(=O)([O-])OC4C(CO)OC(n5cnc6cc(C)c(C)cc65)C4O)C4(C)N=C1C(CCC(N)=O)C4(C)CC(N)=O)C(CCC(N)=O)C\3(C)C)C(CCC(N)=O)C/2(C)CC(N)=O.C/C1=C2N=C(/C=C3N=C(/C(C)=C4\[N-]C(C(CC(N)=O)C4(C)CCC(=O)NCC(C)OP(=O)([O-])OC4C(CO)OC(n5cnc6cc(C)c(C)cc65)C4O)C4(C)N=C1C(CCC(N)=O)C4(C)CC(N)=O)C(CCC(N)=O)C\3(C)C)C(CCC(N)=O)C/2(C)CC(N)=O.[C-]#N.[Co+3] (stereo unspecified),inactive: -0.44%
20,CCOC(=O)c1ccc(NP(C)(=O)Oc2ccc(Cl)cc2)cc1 (stereo unspecified),inactive: 0.05%
21,CP(=O)(OC12CC3CC(CC(C3)C1)C2)OC12CC3CC(CC(C3)C1)C2,inactive: -0.08%
22,O=[N+]([O-])c1cc([N+](=O)[O-])c(Nc2ccccc2)c([N+](=O)[O-])c1,inactive: -0.27%
23,CC(C)c1ccc(OP(C)(=O)O)cc1,inactive: 0.65%
24,NNc1c([N+](=O)[O-])cc([N+](=O)[O-])cc1[N+](=O)[O-],inactive: -0.13%
25,Nc1nonc1-[n+]1nc2nonc2[n-]1,inactive: 0.07%
26,CP(=O)(Nc1cccc(Cl)c1)Nc1cccc(Cl)c1,inactive: -0.07%

row,Compound,normalized activity (activation)
1,CC(Nc1c([N+](=O)[O-])cc([N+](=O)[O-])cc1[N+](=O)[O-])c1ccc([N+](=O)[O-])cc1 (stereo unspecified),inactive: -0.07%
2,CP(=O)(Nc1ccccc1Br)Oc1ccccc1 (stereo unspecified),inactive: 0.21%
3,COc1ccccc1OP(C)(=O)Nc1ccccc1 (stereo unspecified),inactive: 0.14%
4,CP(=O)(Nc1ccc(Cl)cc1)Oc1ccccc1 (stereo unspecified),inactive: -0.03%
5,O=[N+]([O-])c1cc([N+](=O)[O-])c(CCO)c([N+](=O)[O-])c1,inactive: -0.09%
6,CN(C)CCOC(=O)C(O)(c1ccccc1)c1ccccc1,inactive: 0.04%
7,CP(=O)(O)OC(c1ccccc1)C(F)(F)F (stereo unspecified),inactive: 0.23%
8,COc1ccc(NP(C)(=O)OC(c2ccccc2)C(F)(F)F)cc1 (stereo unspecified),inactive: 0.13%
9,CP(=O)(Nc1ccccn1)Oc1ccc(Cl)cc1 (stereo unspecified),inactive: -0.11%
10,Cc1cccc(NP(C)(=O)Oc2ccccc2)c1 (stereo unspecified),inactive: 0.21%
11,CCOC(=O)c1ccc(NP(C)(=O)Oc2ccc(OC)cc2)cc1 (stereo unspecified),inactive: 0.2%
12,Cc1ccc(Cl)cc1OP(C)(=O)Nc1cccc2nsnc12 (stereo unspecified),inactive: -0.22%
13,CCOP(C)(=S)SCC(=O)NC(C)C(=O)O (stereo unspecified),inactive: -0.04%
14,COc1ccccc1OP(C)(=O)Nc1cccc(Cl)c1C (stereo unspecified),inactive: 0.15%
15,CP(=O)(O)OC(c1ccc(Cl)cc1)C(F)(F)F (stereo unspecified),inactive: 0%
16,CP(=O)(NC(=O)Nc1ccccc1)Oc1ccccc1 (stereo unspecified),inactive: -0.04%
17,CP(=O)(O)OC(c1cccc(Cl)c1)C(F)(F)F (stereo unspecified),inactive: 0.02%
18,Cc1ccc(NP(C)(=O)Oc2ccccc2)cc1C (stereo unspecified),inactive: -0.04%
19,CCN(CC)P(=O)(c1c([N+](=O)[O-])cc([N+](=O)[O-])cc1[N+](=O)[O-])N(CC)CC,inactive: -0.1%
20,COc1cc2nc(C)sc2cc1NC(C)=O,inactive: 0.42%
21,CCOP(C)(=S)SCC(=O)NC(Cc1ccccc1)C(=O)O (stereo unspecified),inactive: -0.46%
22,C=C(C)CC1NC2CC(C)(C)C1c1ccccc12.O=[N+]([O-])c1cc([N+](=O)[O-])c(O)c([N+](=O)[O-])c1 (stereo unspecified),inactive: -0.04%
23,COc1ccc(NP(C)(=O)Oc2ccc(C(C)C)cc2)cc1 (stereo unspecified),inactive: 0.1%
24,O=[N+]([O-])c1c(NCCO)c([N+](=O)[O-])c(NCCO)c([N+](=O)[O-])c1NCCO,inactive: 0.27%
25,CCOP(C)(=S)SCN(CC(=O)O)C(=O)OC (stereo unspecified),inactive: 0.16%
26,CC(C)Oc1ccc(NP(C)(=O)Oc2ccc(Cl)cc2)cc1 (stereo unspecified),inactive: -0.1%

row,Compound,normalized activity (activation)
1,CCCCOC(=O)Nc1c([N+](=O)[O-])cc([N+](=O)[O-])cc1[N+](=O)[O-],inactive: -0.02%
2,COc1ccccc1OP(C)(=O)Nc1ccc(Cl)cc1Cl (stereo unspecified),inactive: -0.25%
3,Cc1cc(C)cc(OP(C)(=O)Nc2ccc(F)cc2)c1 (stereo unspecified),inactive: -0.11%
4,CCN(CC)c1nc(C)cc(C)n1.O=[N+]([O-])c1cc([N+](=O)[O-])c(O)c([N+](=O)[O-])c1,inactive: 0%
5,Cc1ccc(NP(C)(=O)Oc2ccccc2)cc1 (stereo unspecified),inactive: 0.13%
6,CCN(CC)CCCOC(=O)C(O)(c1ccccc1)c1ccccc1,inactive: -0.05%
7,Cc1ccc2c(c1)c1nc(C)sc1n2C.O=[N+]([O-])c1cc([N+](=O)[O-])c(O)c([N+](=O)[O-])c1,inactive: -0.79%
8,COc1ccccc1OP(C)(=O)Nc1cc(Cl)ccc1C (stereo unspecified),inactive: 0.23%
9,COc1ccccc1OP(C)(=O)Nc1ccc(C)cc1 (stereo unspecified),inactive: -0.11%
10,Cc1ccc(NP(C)(=O)Oc2ccccc2)c(C)c1 (stereo unspecified),inactive: -0.22%
11,CCOC(=O)c1ccc(NP(C)(=O)Oc2ccccc2)cc1 (stereo unspecified),inactive: 0.4%
12,Cc1cc(C)cc(OP(C)(=O)NCc2ccccc2)c1 (stereo unspecified),inactive: 0.25%
13,CP(=O)(O)OC(c1cccc(C(F)(F)F)c1)C(F)(F)F (stereo unspecified),inactive: 0.12%
14,O=C(O)C(O)(c1ccccc1)c1ccccc1,inactive: -0.05%
15,O=C(O)C1(O)c2ccccc2-c2ccccc21,inactive: -0.04%
16,CC(C)(C)c1ccc(OP(C)(N)=O)cc1 (stereo unspecified),inactive: 0.83%
17,CC(CCN([N+](=O)[O-])S(=O)(=O)c1ccc([N+](=O)[O-])cc1)([N+](=O)[O-])[N+](=O)[O-],inactive: 0.1%
18,CCc1ccc(OP(C)(=O)Nc2ccccc2I)cc1 (stereo unspecified),inactive: 0.13%
19,CP1(=O)Oc2ccccc2Cc2ccccc2O1,inactive: 0.2%
20,O=C(O)Cc1c([N+](=O)[O-])cc([N+](=O)[O-])cc1[N+](=O)[O-],inactive: 0.18%
21,O=[N+]([O-])C12CC3(O)CC([N+](=O)[O-])(C1)CC([N+](=O)[O-])(C3)C2,inactive: -0.05%
22,O=[N+]([O-])Nc1nc(CCc2n[nH]c(N[N+](=O)[O-])n2)n[nH]1,inactive: 0.09%
23,Cc1ccc(Cl)c(OP(C)(=O)Nc2ccccn2)c1 (stereo unspecified),inactive: -0.17%
24,Nc1c([N+](=O)[O-])cc([N+](=O)[O-])c(Nc2ccc(C(=O)O)cc2)c1[N+](=O)[O-],inactive: 0.53%
25,O=[N+]([O-])c1cnc(Nc2c([N+](=O)[O-])cc([N+](=O)[O-])cc2[N+](=O)[O-])c([N+](=O)[O-])c1,inactive: -0.55%
26,CC(=O)NC1(NC(C)=O)CC(C)N(C)CC1C.O=[N+]([O-])c1cc([N+](=O)[O-])c(O)c([N+](=O)[O-])c1 (stereo unspecified),inactive: -0.06%

row,Compound,normalized activity (activation)
1,Cc1ccc(C)c(NP(C)(=O)Oc2ccccc2)c1 (stereo unspecified),inactive: -0.42%
2,O=[N+]([O-])c1cc2[nH]c3cc([N+](=O)[O-])c([N+](=O)[O-])cc3c2cc1[N+](=O)[O-],inactive: -0.32%
3,C=CCC1(CC=C)CCCCCCCCCCCN1.O=[N+]([O-])c1cc([N+](=O)[O-])c(O)c([N+](=O)[O-])c1,inactive: 0.58%
4,CP(=O)(Nc1cccc(Br)c1)Oc1ccccc1 (stereo unspecified),inactive: 0.09%
5,CCOC(=O)c1ccc(NP(C)(=O)Oc2cc(C)cc(C)c2)cc1 (stereo unspecified),inactive: 0.09%
6,O=c1[nH]c2cc([N+](=O)[O-])c([N+](=O)[O-])c([N+](=O)[O-])c2[nH]1,inactive: 1.79%
7,COc1ccc(OP(C)(=O)Nc2cccc(Cl)c2C)cc1 (stereo unspecified),inactive: 0.16%
8,COc1ccccc1OP(C)(=O)Nc1ccc(Cl)cc1 (stereo unspecified),inactive: 0.88%
9,COc1ccccc1OP(C)(=O)Nc1cccc(Br)c1 (stereo unspecified),inactive: 0.08%
10,CC1=[N+](C)C(C)(C)Cc2ccccc21.O=[N+]([O-])c1cc([N+](=O)[O-])c(O)c([N+](=O)[O-])c1,inactive: -0.08%
11,CN(C)/N=C/c1ccc(-c2c([N+](=O)[O-])cc([N+](=O)[O-])cc2[N+](=O)[O-])o1,inactive: -0.52%
12,Cc1cc(-c2nc3ccccc3[nH]2)c2ccccc2n1.O=[N+]([O-])c1cc([N+](=O)[O-])c(O)c([N+](=O)[O-])c1,inactive: 0%
13,COc1ccc(NP(C)(=O)Oc2ccc(Cl)cc2)cc1 (stereo unspecified),inactive: 0.01%
14,CP(=O)(O)OC(c1ccccc1)C(Cl)(Cl)C(F)(F)F (stereo unspecified),inactive: -0.2%
15,CCN(CC)C(=O)c1c([N+](=O)[O-])cc([N+](=O)[O-])cc1[N+](=O)[O-],inactive: 0.03%
16,Nc1nonc1-c1no[n+]([O-])c1-c1nonc1N,inactive: -0.03%
17,CP(=O)(Nc1cccc(Br)c1)Oc1ccc(Cl)cc1 (stereo unspecified),inactive: 0.94%
18,CCCOc1ccc(NP(C)(=O)Oc2ccccc2OC)cc1 (stereo unspecified),inactive: -0.14%
19,COc1ccccc1OP(C)(=O)Nc1c(C)cccc1C (stereo unspecified),inactive: 0.19%
20,Cc1cc(N(C)C)cc[n+]1C(=O)N(C)C.c1ccc([B-](c2ccccc2)(c2ccccc2)c2ccccc2)cc1,inactive: 0.19%
21,CCN(CC)C(C)COC(=O)C(O)(c1ccccc1)c1ccccc1 (stereo unspecified),inactive: -0.01%
22,CCOC(=O)C(CC)C1=NC(C)(C)Cc2ccccc21.O=[N+]([O-])c1cc([N+](=O)[O-])c(O)c([N+](=O)[O-])c1 (stereo unspecified),inactive: -0.13%
23,CP(=O)(Nc1ccc(Br)cc1)Oc1ccc(Cl)cc1 (stereo unspecified),inactive: 0.27%
